Assay [1] concerns the target T1, b-Raf (V600E) (Homo sapiens (Human), UniProt P15056, V600E). The settings on record: read-out: b-Raf IC-50.
Assay [2] addresses C-Raf TR (truncated C-Raf protein, Δ1-324 deletion mutant) (Homo sapiens (Human), UniProt P04049). In kind it is biochemical. The settings on record: read-out: C-Raf TR IC50; truncated C-Raf approximately 4 nM, ATP 1 uM, 60 min pre-incubation, 1 hour reaction.
Assay [3] has as its target T1, b-Raf (V600E). The assay can be described thus: biochemical.
[4] abbreviates: Table 2, AlphaScreen, 3 hours reaction.

Sequences of proteins named here, by UniProt entry; tags and fusion partners are left off. A change or cut given only in a name is not applied to a line headed by its entry. Residues count along the entry.
UniProt P15056, whole entry V600E: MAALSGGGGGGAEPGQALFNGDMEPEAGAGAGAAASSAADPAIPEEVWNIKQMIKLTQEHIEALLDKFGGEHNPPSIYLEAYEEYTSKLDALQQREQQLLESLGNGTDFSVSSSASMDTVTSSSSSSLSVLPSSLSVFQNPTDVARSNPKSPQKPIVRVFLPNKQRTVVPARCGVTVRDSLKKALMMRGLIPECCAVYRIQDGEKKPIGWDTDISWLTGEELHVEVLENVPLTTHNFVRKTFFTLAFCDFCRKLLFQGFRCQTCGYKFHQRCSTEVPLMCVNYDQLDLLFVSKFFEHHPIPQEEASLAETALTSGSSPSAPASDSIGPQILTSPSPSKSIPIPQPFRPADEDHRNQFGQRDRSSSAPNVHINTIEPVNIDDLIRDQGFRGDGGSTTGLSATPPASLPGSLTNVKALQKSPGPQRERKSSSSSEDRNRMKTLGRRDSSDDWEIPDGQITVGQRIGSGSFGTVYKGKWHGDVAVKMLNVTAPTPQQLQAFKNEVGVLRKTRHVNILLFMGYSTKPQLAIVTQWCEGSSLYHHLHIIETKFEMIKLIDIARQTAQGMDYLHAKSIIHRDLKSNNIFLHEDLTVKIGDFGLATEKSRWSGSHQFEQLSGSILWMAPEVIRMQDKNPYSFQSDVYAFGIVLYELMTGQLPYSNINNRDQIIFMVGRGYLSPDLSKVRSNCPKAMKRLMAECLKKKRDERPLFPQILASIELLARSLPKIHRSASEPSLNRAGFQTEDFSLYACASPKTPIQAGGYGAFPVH
UniProt P04049, 325-648: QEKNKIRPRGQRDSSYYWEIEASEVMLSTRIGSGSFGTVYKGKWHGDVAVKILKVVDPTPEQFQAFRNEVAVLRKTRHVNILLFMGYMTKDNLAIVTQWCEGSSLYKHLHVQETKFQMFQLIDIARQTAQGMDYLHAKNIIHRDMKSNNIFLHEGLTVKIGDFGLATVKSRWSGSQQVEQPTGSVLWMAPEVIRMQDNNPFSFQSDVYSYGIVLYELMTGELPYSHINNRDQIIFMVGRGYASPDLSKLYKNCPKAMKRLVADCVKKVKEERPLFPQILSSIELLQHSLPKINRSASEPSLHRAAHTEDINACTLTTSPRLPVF

Like-named read-outs stand apart in the source and are kept apart here.

On to `Cc1ccc(C(=O)Nc2cccc(C(F)(F)F)c2)cc1-c1cc(N2CCOCC2)nc(N2CCS(=O)(=O)CC2)n1` [Example 9, 3-(2-(1,1-dioxidothiomorpholino)-6-morpholinopyrimidin-4-yl)-4-methyl-N-(3-(trifluoromethyl)phenyl)benzamide], for which the IC50 on b-Raf (V600E) [1] (setting [4]) is 1.5 nM.

Regarding `Cc1ccc(C(=O)Nc2cccc(C(F)(F)F)c2)cc1-c1cc(N2CCOCC2)ccn1` [Example 64, 4-methyl-3-(4-morpholinopyridin-2-yl)-N-(3-(trifluoromethyl)phenyl)benzamide], the IC50 in assay [2] was found to be 0.847 nM.

Regarding `COc1ncc(-c2cc(NC(=O)c3ccnc(C(C)(C)C#N)c3)cnc2C)cc1N1CCOCC1` [Example 129, 2-(2-cyanopropan-2-yl)-N-(6′-methoxy-2-methyl-5′-morpholino-[3,3′-bipyridin]-5-yl)isonicotinamide], the IC50 on b-Raf (V600E) [1] (setting [4]) is 14.9 nM.

Regarding `Cc1ncc(NC(=O)c2cccc(C(F)(F)F)c2)cc1-c1cc(N2CCOCC2)n(C)c(=O)c1` [Example 163], the IC50 at b-Raf (V600E) [1] (setting [4]) came to 5.7 nM.

The compound `COC(=O)NCCn1cc(-c2cc(NC(=O)c3cccc(C(F)(F)F)c3)ccc2C)cc(N2CCOCC2)c1=O` [Example 194, Methyl(2-(5-(2-methyl-5-(3-(trifluoromethyl)benzamido)phenyl)-3-morpholino-2-oxopyridin-1(2H)-yl)ethyl)carbamate] came in with an IC50 at b-Raf (V600E) [3] of 13.2 nM.

Turning to `Cc1ccc(NC(=O)c2ccc(CN)c(C(F)(F)F)c2)cc1-c1cc(N2CCOCC2)c(=O)n(C)c1` [Example 461, 4-(aminomethyl)-N-(4-methyl-3-(1-methyl-5-morpholino-6-oxo-1,6-dihydropyridin-3-yl)phenyl)-3-(trifluoromethyl)benzamide], the IC50 against b-Raf (V600E) [3] turned out to be 11 nM.

On b-Raf (V600E) [3], `CNCc1ccc(C(=O)Nc2ccc(C)c(-c3cc(N4CCOCC4)c(=O)n(C)c3)c2)cc1C(F)(F)F` [Example 466, N-(4-methyl-3-(1-methyl-5-morpholino-6-oxo-1,6-dihydropyridin-3-yl)phenyl)-4-((methylamino)methyl)-3-(trifluoromethyl)benzamide] gave an IC50 of 5.5 nM.

As for `Cc1ncc(NC(=O)c2cccc(C(F)(F)F)c2)cc1-c1cc(N2CCOCC2)n(C)c(=O)c1` [Example 498, N-(1′,2-dimethyl-6′-morpholino-2′-oxo-1′,2′-dihydro-[3,4′-bipyridin]-5-yl)-3-(trifluoromethyl)benzamide], the IC50 on b-Raf (V600E) [1] (AlphaScreen, 60 min pre-incubation, 3 hours reaction) is 5.7 nM.

Regarding `Cc1ccc(NC(=O)c2cccc(C(F)(F)F)c2)cc1-c1cc2nccn2c(N2CCOCC2)n1` [Example 828, N-(4-methyl-3-(5-morpholinoimidazo[1,2-c]pyrimidin-7-yl)phenyl)-3-(trifluoromethyl)benzamid], on b-Raf (V600E) [1], the IC50 was 1 nM.

In the case of `Cc1ccc(NC(=O)c2cc(C(C)(C)N)cc(C(F)(F)F)c2)cc1-c1cc(N2CCOCC2)c(=O)n(C)c1` [Example 908, 3-(2-aminopropan-2-yl)-N-(4-methyl-3-(1-methyl-5-morpholino-6-oxo-1,6-dihydropyridin-3-yl)phenyl)-5-(trifluoromethyl)benzamide], the IC50 on b-Raf (V600E) [3] is 6.88 nM.

For the origin of these results see patent publication US9694016B2 (dated 2017).
